scFv variants of Ab-14 (light chain) against a SARS-CoV-2 spike peptide

Values reported by Engelhart et al. 2022, doi:10.1038/s41597-022-01779-4 (FLAb copy).

Target peptide (SARS-CoV-2 spike, HR2 region): PDVDLGDISGINAS

The variants keep the heavy chain, the linker and the frameworks of Ab-14 (scFv order VH, three GGGGS repeats, VL).
VH: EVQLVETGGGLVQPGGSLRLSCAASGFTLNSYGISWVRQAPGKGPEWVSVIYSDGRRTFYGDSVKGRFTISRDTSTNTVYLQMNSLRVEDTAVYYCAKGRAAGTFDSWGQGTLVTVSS
VL: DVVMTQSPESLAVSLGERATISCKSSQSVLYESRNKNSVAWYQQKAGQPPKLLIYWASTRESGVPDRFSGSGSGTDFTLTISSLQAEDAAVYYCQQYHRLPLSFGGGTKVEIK

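Library AAYL50 holds single substitutions and randomly drawn double and triple substitutions in the CDRs. AlphaSeq pools MATa yeast showing the antibodies with MATalpha yeast showing the peptide. Binding brings cells together so that they mate, and sequencing counts the barcode pairs among the diploids. Read counts were normalised to the haploid input and turned into Kd by a linear fit to BCL2-family pairs of known affinity, for each replicate. There are three technical replicates.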

The parent's light chain CDRs are KSSQSVLYESRNKNSVA, WASTRES, QQYHRLPLS; each variant's own CDRs replace them letter for letter. Each Kd is an estimate from the mating assay, the geometric mean of the replicates in which the pair was seen; lower is stronger. "no signal" marks a missing value. The strain was present, yet no cells mated with the target were sequenced in any replicate, which points to weak or no binding. As a blank, each scFv also met three strains without target: over library AAYL50, 18% of these pairings were detected, typically at 15 µM and seldom below 970 nM.

| CDR-L1 | CDR-L2 | CDR-L3 | Kd | detected |
|---|---|---|---|---|
| KSSQSVLYESRNKNSVA | WALTREI | QQYIRLPLS | 1.5 µM | 1/3 |
| QSSQSVLYAARNKNSVA | WASTRES | QQYHRLPLS | 18 nM | 3/3 |
| KSSQPVLYESRNKNSVA | WASTREF | QQYWRLPLS | 8.2 nM | 3/3 |
| KDSQNVLYESRNKNSVA | WASTRES | QQYHNLPLS | no signal | 0/3 |
| KSSQSVLYESRNKNSVA | EASTYES | QQYHRLPLS | 16 nM | 3/3 |
| KSSQSCLYESRNKNSVA | WASWRES | QQYHRLPLS | 3.4 µM | 2/3 |
| KSCQSVLYESRNENSVA | WASTREL | QQYHRLPLS | 110 nM | 3/3 |
| KSLQSVLYESRNWNSVA | WASLRES | QQYHRLPLS | 20 nM | 3/3 |
| KSSQSVLYESRNKNLVA | WASTRES | QQYHRQFLS | no signal | 0/3 |
| KSSQSQLYESRNRNSVS | WASTRES | QQYHRLPLS | 3.2 µM | 2/3 |
| KSSGSVLYESRNMNSVA | WASTRES | QQYHRLPLS | 4.3 nM | 3/3 |
| KSSQSVLYESRNKNSQA | WASTFEM | QQYHRLPLS | no signal | 0/3 |
| KSSQSVLYESRNKNSVA | WASTREM | QQYHRLKLS | 190 nM | 3/3 |
| KSSQSRLYSSRNKNSVA | WRSTRES | QQYHRLPLS | 6.6 µM | 2/3 |
| HSSQDVLYESRNKNSVA | WASRRES | QQYHRLPLS | 16 nM | 3/3 |
| KSSQSVLLESRNKNSVA | WAVTRES | QQYHLLPLS | 140 nM | 3/3 |
| KSSQSNMYESRNKNSVA | WASTRES | QQYHRLPIS | 9.7 nM | 3/3 |
| KSSQSHLYESRNKNSVA | KASTRES | QQYHRLPLL | 4.1 nM | 3/3 |
| KSMQSVLYESRNKNIVS | WASTRES | QQYHRLPLS | no signal | 0/3 |
| VSSQSVLYESRNKNSVA | WETTRES | QQYHRLPLS | 130 µM | 2/3 |
| KSSQSVLYDSRNKNSVA | WASTFES | RQYHRLPLS | no signal | 0/3 |
| KSSQSVLYESVNKNSRA | WASNRES | QQYHRLPLS | 2.4 µM | 1/3 |
| KSSQSVLYESRNKNSVA | WASTMES | QQYKRNPLS | 550 µM | 1/3 |
| KSSQSVLYYSRNPNSVA | WASTRES | PQYHRLPLS | no signal | 0/3 |
| KSSQSVLYESRNKVSVA | WASARES | QQYHRSPLS | 13 µM | 3/3 |
| KSSQSVLYESRNKNSVA | CASYRES | QQYHRLPLT | 54 nM | 2/3 |
| KSSQSVLYEVRNKNSVL | NASTRES | QQYHRLPLS | 14 µM | 2/3 |
| KSSQSVKYESRNKNSVA | WASTRNS | QQYHELPLS | 390 nM | 3/3 |
| KSSQSVLYESRNKNSVA | WAVTRES | QQIHRLPLW | 490 nM | 3/3 |
| KSSQSSLYESRNKNSCA | WASTRES | QVYHRLPLS | 3.9 µM | 1/3 |
| KSSQSVLYESRNANSVA | WASTREQ | QQYHRLPLS | 24 nM | 3/3 |
| KCSQSQLYESRNKNSVR | WASTRES | QQYHRLPLS | 170 µM | 1/3 |
| CSSQSVWYESRNKNSVA | WASTRES | QQYHLLPLS | 2.6 µM | 1/3 |
| KSSQSVHYESRNKNSVA | WASTRES | QQYHRLTLS | 5.3 nM | 3/3 |
| KSSQSVLGESRNKNSVA | WVSTRES | QQYHRLPLN | 72 µM | 2/3 |
| KSPQSVLYESRNKNSVA | WASTRKS | QQYHGLPLS | 380 µM | 1/3 |
| KSSQSVLYESRNKNSVA | WASTRYS | QSYWRLPLS | 41 nM | 3/3 |
| NSSQRVLYENRNKNSVA | WASTRES | QQYHRLPLS | 1.2 µM | 3/3 |
| KSSQSVRYESRNKNSVA | WMSTRES | QQYHRPPLS | 31 µM | 3/3 |
| KSSQPVLYESRNKNSVQ | WASTDES | QQYHRLPLS | no signal | 0/3 |
| KSSQSVLYESRNKNSVS | WASTREV | QQYHRLPMS | 10 µM | 2/3 |
| KSSQSVDYESRNKNSVA | WASTRES | QQYHRLPCS | 23 nM | 3/3 |
| KSSQSVLYESRNINSVA | WASCRES | QQYHRLPLK | 270 nM | 3/3 |
| KSSQSVLYESRNKNSHA | WASTREW | QQYHRLPLS | no signal | 0/3 |
| KSSQSVLYCSRNKNQVA | MASTRES | QQYHRLPLS | 1.1 µM | 2/3 |
| KSSQSVLYESRNKNSVA | YASTREK | DQYHRLPLS | 250 µM | 2/3 |
| LPSQSVLYESRNKNSVA | WASTRES | QQYHRLPLS | 7.1 µM | 3/3 |
| KSSQSVLYESRNANSMY | WASTRES | QQYHRLPLS | no signal | 0/3 |
| SSSQSVLYESRNKRSVA | WASTRES | QQQHRLPLS | no signal | 0/3 |
| KSSQPVLYESRNKNSVA | WASERES | QDYHRLPLS | 9.0 nM | 3/3 |
| KSSQSVLYESRNKLSDA | WASTFES | QQYHRLPLS | 150 µM | 1/3 |
| KSSQSVLYESRNKNSVL | WASTRES | QQYHDLPTS | 180 µM | 3/3 |
| KSSQSHLYESRNKNSVA | WASTMES | QQYHRLPES | 7.5 µM | 1/3 |
| KSSQSVLYESRNKNSVS | WASTRES | NQYHRLPLS | 1.5 µM | 1/3 |
| KSSQSVLYERRNKNSVA | WASTRES | QQYHCLALS | 180 nM | 3/3 |
| KSSQSVLYESWNKNSVA | WASTRQS | TQYHRLPLS | no signal | 0/3 |
| KSSQSVLYASRNKNSVA | WWSTRES | QQYHQLPLS | no signal | 0/3 |
| KSSCSVLYESRNKNVVA | WASTRES | QQYHALPLS | no signal | 0/3 |
| KSSQSVKYESRNANSVA | WASTRES | QQYHRLPLS | 4.1 nM | 3/3 |
| KSSQSVLYESRNKNKVA | WASTRES | QQYHWLELS | no signal | 0/3 |
| KSSQSVLYEERNKNSVA | WCSTRES | QQQHRLPLS | 4.0 µM | 1/3 |
| YSHQSVLYESRNKNYVA | WASTRES | QQYHRLPLS | no signal | 0/3 |
| RSSQSVLYETRNKNSPA | WASTRES | QQYHRLPLS | no signal | 0/3 |
| KSSQSVLYEQRPKNSVA | WASTRES | QQYERLPLS | 2.6 nM | 3/3 |
| QSSQSVLYESRNKNSVA | WSSTRES | QQYLRLPLS | no signal | 0/3 |
| KSSQSVLYGSRNKNSVA | WASTMES | QQYHRLPES | no signal | 0/3 |

The opening 8 entries, copied out:

{"CDR-L1": "KSSQSVLYESRNKNSVA", "CDR-L2": "WALTREI", "CDR-L3": "QQYIRLPLS", "Kd": "1.5 µM", "detected": "1/3"}
{"CDR-L1": "QSSQSVLYAARNKNSVA", "CDR-L2": "WASTRES", "CDR-L3": "QQYHRLPLS", "Kd": "18 nM", "detected": "3/3"}
{"CDR-L1": "KSSQPVLYESRNKNSVA", "CDR-L2": "WASTREF", "CDR-L3": "QQYWRLPLS", "Kd": "8.2 nM", "detected": "3/3"}
{"CDR-L1": "KDSQNVLYESRNKNSVA", "CDR-L2": "WASTRES", "CDR-L3": "QQYHNLPLS", "Kd": "no signal", "detected": "0/3"}
{"CDR-L1": "KSSQSVLYESRNKNSVA", "CDR-L2": "EASTYES", "CDR-L3": "QQYHRLPLS", "Kd": "16 nM", "detected": "3/3"}
{"CDR-L1": "KSSQSCLYESRNKNSVA", "CDR-L2": "WASWRES", "CDR-L3": "QQYHRLPLS", "Kd": "3.4 µM", "detected": "2/3"}
{"CDR-L1": "KSCQSVLYESRNENSVA", "CDR-L2": "WASTREL", "CDR-L3": "QQYHRLPLS", "Kd": "110 nM", "detected": "3/3"}
{"CDR-L1": "KSLQSVLYESRNWNSVA", "CDR-L2": "WASLRES", "CDR-L3": "QQYHRLPLS", "Kd": "20 nM", "detected": "3/3"}